Yeast mating assay 1: variants of the scFv Ab-14

Target peptide (SARS-CoV-2 spike, HR2 region): PDVDLGDISGINAS

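AAYL49 was designed without a model: most single CDR substitutions and a random sample of double and triple ones. Affinity was read by AlphaSeq, a pooled yeast mating assay with surface-displayed partners. Pairs that bind mate more often; barcode pairs of the diploids are counted by sequencing. Scores were corrected for input abundance and mapped to Kd with protein pairs of known affinity run in the same pool. Mating was done three times.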

Ab-14 is the parent antibody, in scFv form: VH, then the linker GGGGSGGGGSGGGGS, then VL. The light chain is unchanged in all variants.
VH: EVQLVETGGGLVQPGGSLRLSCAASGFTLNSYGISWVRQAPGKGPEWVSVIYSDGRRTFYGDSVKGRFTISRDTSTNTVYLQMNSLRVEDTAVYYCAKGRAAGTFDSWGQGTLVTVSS
VL: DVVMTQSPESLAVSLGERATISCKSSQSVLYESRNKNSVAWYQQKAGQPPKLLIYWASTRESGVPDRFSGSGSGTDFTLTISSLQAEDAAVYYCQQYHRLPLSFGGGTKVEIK

Variants are written as CDR1, CDR2 and CDR3 of the heavy chain (limits as in the source). Parent: GFTLNSYGIS, VIYSDGRRTFYGDSVK, GRAAGTFDS.
Scale: log10 of Kd in nM, estimated from mating counts; low values are strong binders.
"ND" means that the variant was in the library but no mating with the target was seen in that replicate; the authors take this as a sign of poor binding, and no number exists.
Background: pairings of library AAYL49 with three empty control strains gave a value in 15% of cases (median 4.06, 5th percentile 2.83). Values in that range, when seen in few replicates, are hard to tell from nonspecific mating. For each scFv, signals with the empty controls are counted beside the result, with their mean in brackets.

| # | CDR-H1 | CDR-H2 | CDR-H3 | replicates, log10 nM | empty controls |
|---|---|---|---|---|---|
| 1 | GKTVNSYGIS | VIYSDGRRTFYGDSVK | QRAAGTFDS | 4.90 / 4.78 / ND | 4/9 (3.08) |
| 2 | GFVLASYGIS | VIYSDGRRTFYGDSVK | LRAAGTFDS | 1.89 / ND / 3.58 | 0/9 |
| 3 | GFTLNSYGIS | VIYSDYRRTTYGDSVK | GRAAGTFDS | ND / ND / ND | 1/9 (2.51) |
| 4 | GFTLNSYGIS | VIYSDGRRTFYSDSVK | ARAAGTFFS | ND / 4.68 / 4.96 | 5/9 (4.55) |
| 5 | GFTLNSYGIS | VIYSDERPTFYGDSVK | GRAAGTFIS | ND / 2.63 / ND | 1/9 (3.48) |
| 6 | GFTLNCYGIS | VIYSDGRRTFYEDSVK | GRDAGTFDS | ND / ND / ND | 1/9 (3.93) |
| 7 | GHTLNSYGIT | VIYSDGRRTFYGDSVK | GRAAGTPDS | ND / 3.59 / 4.39 | 1/9 (3.04) |
| 8 | GFTLNSYGIS | VIYSDGRRTFYRDSVK | GRAAGYFDE | ND / ND / 3.60 | 1/9 (4.13) |
| 9 | GFTLNSYPKS | VIYSDGRRTFYGASVK | GRAAGTFDS | ND / ND / 4.42 | 6/9 (4.64) |
| 10 | GFTLNSYGIS | VIYSDGRRTFYGESVK | GRTAGTFQS | 1.23 / 1.45 / 1.56 | 4/9 (4.25) |
| 11 | GFTLNSEGIS | VIKSDGRRTFYGDSVK | GRHAGTFDS | 4.91 / ND / ND | 0/9 |
| 12 | RFTLNSYGIS | AIYSDGRRTFMGDSVK | GRAAGTFDS | ND / ND / ND | 0/9 |
| 13 | GFTLFSYGIS | VIYSDGERTFYGDSVK | GWAAGTFDS | ND / ND / ND | 0/9 |
| 14 | GFTLNSYGIR | VIYSDGFRTFYGDQVK | GRAAGTFDS | ND / ND / ND | 1/9 (4.23) |
| 15 | GFTLRSYGIS | VIYSDGNRTFYGDSVK | GRAAGTFDN | 2.34 / 2.73 / 3.03 | 1/9 (4.93) |
| 16 | KATLLSYGIS | VIYSDGRRTFYGDSVK | GRAAGTFDS | ND / 2.26 / ND | 0/9 |
| 17 | GGTLVSYGIS | VIYSDGRRTFYGDSVK | GRAAGTFDS | ND / ND / ND | 0/9 |
| 18 | GFTLNSRGDS | VQYSDGRRTFYGDSVK | GRAAGTFDS | ND / ND / ND | 1/9 (4.16) |
| 19 | GFTLNSYGIS | VIHSNGRRTFYGDSVK | GRAEGTFDS | ND / 4.52 / 3.04 | 1/9 (3.44) |
| 20 | GFTLNSYGIS | VIYSDSRRTFYGDSVK | GRAAGTKDS | ND / ND / ND | 0/9 |
| 21 | GFTLNSYGIS | VIYSDGRRTFYGDSVK | GREAGFFFS | 0.69 / 0.75 / 0.73 | 1/9 (4.08) |
| 22 | GFTLNSYGIS | VIYSDGRYTFYEDSVK | KRAAGTFDS | ND / ND / ND | 0/9 |
| 23 | GFTLNSYGIS | VIYSRGRRTFYGDSVN | GWAAGTFDS | ND / ND / ND | 0/9 |
| 24 | GFKENSYGIS | VIYSDGRRTLYGDSVK | GRAAGTFDS | ND / ND / 4.78 | 0/9 |
| 25 | GFTLNSYGRS | VIYFDGRRTFYGDSVK | GRAAGTFQS | ND / ND / ND | 1/9 (3.29) |
| 26 | GFTLNSYGIS | VIYSDGRRSFYGDTVK | GRAAGTFDS | 1.90 / 2.13 / 1.83 | 1/9 (3.60) |
| 27 | GFTLNSCNIS | VIYSDGRRTFYGDSVK | GRAAGDFDS | ND / ND / ND | 0/9 |
| 28 | GFTLNSYGIS | QIYSDGRRTFYGDSTK | GRAAGTFHS | ND / ND / ND | 1/9 (2.18) |
| 29 | GTTLNSYGIS | VWYSDGRRTFYGGSVK | GRAAGTFDS | ND / ND / ND | 0/9 |
| 30 | GFPLNEYGIS | VIYSDGRRTFYGDSVK | GRAIGTFDS | ND / ND / 3.83 | 1/9 (4.15) |
| 31 | GFTLNSAGIS | VIYSDGRRTFYGDSVK | GRAAGTFDS | 5.03 / 2.82 / 2.90 | 1/9 (4.54) |
| 32 | LFTLNSYGIS | VIYSDGRRTFLGDSVK | GRAANTFDS | 4.26 / 4.55 / ND | 6/9 (4.52) |
| 33 | GRTGNSYGIS | VIYSDGRRTFYGDSVK | GRVAGTFDS | ND / 2.92 / 2.20 | 0/9 |
| 34 | GFTVVSYGIS | VIYSDGMRTFYGDSVK | GRAAGTFDS | 3.92 / 2.69 / 2.94 | 0/9 |
| 35 | GFTLNSYGIA | VIYSDGRRTFAGDSVF | GRAAGTFDS | ND / 4.50 / ND | 3/9 (4.44) |
| 36 | GFTLNSYGIS | VIYVDGRRTFYGDSVK | GRAAGFPDS | ND / ND / ND | 0/9 |
| 37 | GFTLNSYGIS | VQYSHGRRTFYGDSVK | GRAAGTFDS | ND / ND / ND | 0/9 |
| 38 | GFALNSNGIS | VIYSDGRRTFYGHSVK | GRAAGTFDS | 4.37 / ND / ND | 0/9 |
| 39 | GFTLNSYGIS | VIYSDGRRTFYGDSVK | GRANGPFDS | 3.54 / 2.94 / 3.81 | 2/9 (4.13) |
| 40 | GWTLNSYGIS | VIYSDGRRTFNGDSVK | FRAAGTFDS | ND / ND / ND | 1/9 (4.52) |
| 41 | GFTLNSYGES | VIYSDGRRTVYGDSVK | GAAAGTFDS | 3.33 / 3.32 / ND | 2/9 (4.19) |
| 42 | GFTLNSYGIE | QIYSDGRRTFYGRSVK | GRAAGTFDS | ND / ND / ND | 1/9 (3.45) |
| 43 | GFTLNSYGSS | VILSDGRRTFYGDHVK | GRAAGTFDS | ND / ND / ND | 0/9 |
| 44 | GFTKNSYGIS | VIYSDSRRTFYGDSVK | GRWAGTFDS | ND / ND / ND | 0/9 |
| 45 | GFTLNSYGIS | CIYSDGRRTFYGLSVK | GRAAGPFDS | ND / ND / ND | 0/9 |

Excerpt, the first 6 entries:

CDR-H1,CDR-H2,CDR-H3,"replicates, log10 nM",empty controls
GKTVNSYGIS,VIYSDGRRTFYGDSVK,QRAAGTFDS,4.90 / 4.78 / ND,4/9 (3.08)
GFVLASYGIS,VIYSDGRRTFYGDSVK,LRAAGTFDS,1.89 / ND / 3.58,0/9
GFTLNSYGIS,VIYSDYRRTTYGDSVK,GRAAGTFDS,ND / ND / ND,1/9 (2.51)
GFTLNSYGIS,VIYSDGRRTFYSDSVK,ARAAGTFFS,ND / 4.68 / 4.96,5/9 (4.55)
GFTLNSYGIS,VIYSDERPTFYGDSVK,GRAAGTFIS,ND / 2.63 / ND,1/9 (3.48)
GFTLNCYGIS,VIYSDGRRTFYEDSVK,GRDAGTFDS,ND / ND / ND,1/9 (3.93)

For reference, the parent read 0.65 as the reference entry and 4.11 (one replicate of three) as a member of this library.

Data: MIT Lincoln Laboratory AlphaSeq set, Engelhart et al. 2022, doi:10.1038/s41597-022-01779-4, as distributed in FLAb.